{"sequences": {"note": "Protein sequences, listed by entry. Tags and fused reporters are not part of them. Residues count along the entry.", "UniProt P36544, 23-502 limits assumed": "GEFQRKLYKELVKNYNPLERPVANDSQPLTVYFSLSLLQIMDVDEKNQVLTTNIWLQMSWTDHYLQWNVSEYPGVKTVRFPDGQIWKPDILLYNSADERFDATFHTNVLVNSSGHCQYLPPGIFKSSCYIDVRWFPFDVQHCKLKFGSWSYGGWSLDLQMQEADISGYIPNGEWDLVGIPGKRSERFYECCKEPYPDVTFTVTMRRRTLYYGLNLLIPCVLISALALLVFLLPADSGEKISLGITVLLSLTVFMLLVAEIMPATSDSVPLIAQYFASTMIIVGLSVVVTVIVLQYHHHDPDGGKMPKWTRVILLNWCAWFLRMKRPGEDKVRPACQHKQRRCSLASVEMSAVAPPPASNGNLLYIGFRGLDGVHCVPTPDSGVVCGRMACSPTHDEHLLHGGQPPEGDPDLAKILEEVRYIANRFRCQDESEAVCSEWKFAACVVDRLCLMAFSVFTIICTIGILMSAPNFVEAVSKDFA"}, "source": "patent US10183938B2", "about": "“Geminal substituted quinuclidine amide compounds as agonists of α-7 nicotonic acetylcholine receptors” (AXOVANT SCIENCES GMBH, priority 2014, dated 2019)", "note": "Where a name gives a salt, the structure may show the parent alone.", "data": [{"molecular_target": "human α7 nAChR (Homo sapiens (Human), UniProt P36544)", "experiment": "Human α7 nAChR binding assay ([125I]-αBungarotoxin competition binding)", "settings": "read-out: h-a7 Ki; SH-SY5Y membranes, 0.05 nM [125I]-αBgt, Cheng Prusoff", "units": {"Ki": "µM"}, "values": [{"smiles": "CC(C)(C)c1ccc2cc(C(=O)N[C@@H]3C4CCN(CC4)C3(C)C)sc2c1", "Ki": "> 30"}, {"smiles": "CC(C)(C)c1ccc2cc(C(=O)N[C@@H]3C4CCN(CC4)C34CC4)sc2c1", "Ki": "> 30"}, {"smiles": "CC1(C)[C@H](NC(=O)c2cc3c(s2)CCCC3)C2CCN1CC2", "Ki": "> 30"}, {"smiles": "CC1(C)[C@H](NC(=O)c2cc3cccc(OC(F)(F)F)c3s2)C2CCN1CC2", "Ki": 0.52}, {"smiles": "CC1(C)[C@H](NC(=O)c2ccc3c(c2)OC(F)(F)O3)C2CCN1CC2", "Ki": "> 30"}, {"smiles": "CC1(C)[C@H](NC(=O)c2cn3ccnc3cn2)C2CCN1CC2", "Ki": "> 30"}, {"smiles": "CC1(C)[C@H](NC(=O)c2cnc3ccccc3c2)C2CCN1CC2", "Ki": "> 30"}, {"smiles": "CN(C)c1ccc2cc(C(=O)N[C@@H]3C4CCN(CC4)C3(C)C)sc2c1", "Ki": 8}, {"smiles": "COc1ccc(C(=O)N[C@@H]2C3CCN(CC3)C2(C)C)cc1C", "Ki": "> 30"}, {"smiles": "COc1ccc(C(=O)N[C@@H]2C3CCN(CC3)C23CC3)cc1C", "Ki": "> 30"}, {"smiles": "Cn1c(C(=O)N[C@@H]2C3CCN(CC3)C2(C)C)nc2ccccc21", "Ki": "> 30"}, {"smiles": "Cn1ccc2cc(C(=O)N[C@@H]3C4CCN(CC4)C3(C)C)ccc21", "Ki": "> 30"}, {"smiles": "Cn1nc(C(=O)N[C@@H]2C3CCN(CC3)C2(C)C)c2ccccc21", "Ki": "> 30"}, {"smiles": "Cn1nc(C(=O)N[C@@H]2C3CCN(CC3)C23CC3)c2ccccc21", "Ki": "> 30"}, {"smiles": "O=C(N[C@@H]1C2CCN(CC2)C12CC2)c1ccc2c(c1)OC(F)(F)O2", "Ki": "> 30"}, {"smiles": "O=C(N[C@@H]1C2CCN(CC2)C12CC2)c1ccc2ncccc2c1", "Ki": "> 30"}, {"smiles": "O=C(N[C@@H]1C2CCN(CC2)C12CC2)c1cn2ccnc2cn1", "Ki": "> 30"}, {"smiles": "O=C(N[C@@H]1C2CCN(CC2)C12CC2)c1cnc2ccccc2c1", "Ki": "> 30"}, {"smiles": "O=C(NC1C2CCN(CC2)C12CC2)c1cc2cc(F)ccc2s1", "note": "(single isomer, unassigned)", "Ki": 0.2}, {"smiles": "O=C(NC1C2CCN(CC2)C12CC2)c1cc2ccc(F)cc2s1", "note": "(single isomer, unassigned)", "Ki": 0.22}, {"smiles": "O=C(NC1C2CCN(CC2)C12CC2)c1cc2cccc(Cl)c2s1", "note": "(single isomer, unassigned)", "Ki": 0.037}, {"smiles": "O=C(NC1C2CCN(CC2)C12CC2)c1ccc2ccsc2c1", "note": "(single isomer, unassigned)", "Ki": 0.11}, {"smiles": "O=C(NC1C2CCN(CC2)C12CC2)c1ccc2occc2c1", "note": "(single isomer, unassigned)", "Ki": 0.25}, {"smiles": "CC1(C)[C@H](NC(=O)c2cc3ccccc3s2)C2CCN1CC2", "note": "[(R)-1, (R)—N-(2,2-dimethylquinuclidin-3-yl)benzo[b]thiophene-2-carboxamide hydrochloride]", "Ki": 0.27}, {"smiles": "CC1(C)[C@H](NC(=O)c2cc3cccc(Cl)c3s2)C2CCN1CC2", "note": "[(R)-3, (R)-7-chloro-N-(2,2-dimethylquinuclidin-3-yl)benzo[b]thiophene-2-carboxamide hydrochloride]", "Ki": 0.11}, {"smiles": "CC1(C)[C@H](NC(=O)c2cc3ccc(F)cc3s2)C2CCN1CC2", "note": "[(R)-8, (R)—N-(2,2-dimethylquinuclidin-3-yl)-6-fluorobenzo[b]thiophene-2-carboxamide hydrochloride]", "Ki": 0.83}, {"smiles": "CC1(C)[C@H](NC(=O)c2cc3cc(C(F)(F)F)ccc3s2)C2CCN1CC2", "note": "[(R)-17, (R)—N-(2,2-dimethylquinuclidin-3-yl)-5-(trifluoromethyl)benzo[b]thiophene-2-carboxamide hydrochloride]", "Ki": "> 30"}, {"smiles": "CC1(C)[C@H](NC(=O)c2cnn3ncccc23)C2CCN1CC2", "note": "[(R)-27, (R)—N-(2,2-dimethylquinuclidin-3-yl)pyrazolo[1,5-b]pyridazine-3-carboxamide hydrochloride]", "Ki": "> 30"}, {"smiles": "Cc1nc2ccc(C(=O)N[C@@H]3C4CCN(CC4)C3(C)C)cc2o1", "note": "[(R)-33, (R)—N-(2,2-dimethylquinuclidin-3-yl)-2-methylbenzo[d]oxazole-6-carboxamide]", "Ki": "> 30"}, {"smiles": "CC1(C)[C@H](NC(=O)c2cnc3occc3c2)C2CCN1CC2", "note": "[(R)-36, (R)—N-(2,2-dimethylquinuclidin-3-yl)furo[2,3-b]pyridine-5-carboxamide hydrochloride]", "Ki": "> 30"}]}]}
